Laboratory results: US5116971A, “Substituted-1,4-diazepines” (Boehringer Ingelheim KG, priority 1986, dated 1992)

Test system: human platelets (aggregation induced by PAF)
Test: inhibition of PAF-induced blood platelet aggregation in vitro
Assay type: cell-based
Conditions: human PRP, PAF 5×10^-8 M, read-out: IC50 (concentration for 50% inhibition of aggregation)
Method: To determine the PAF-antagonistic action of substances, use was made of the aggregation of human platelets induced in vitro by PAF. To obtain platelet-rich plasma (PRP), blood is taken from an uncompressed vein using a plastic syringe containing 3.8% strength sodium citrate solution. The ratio between sodium citrate solution and blood is 1:9. After careful mixing, the citrated blood is centrifuged at 150×g (1200 rpm) for 20 minutes. The platelet aggregation is measured by the method worked out by Born and Cross (G. V. R. Born and M. J. Cross, J. Physiol. 168, 178 (1963)), with PAF being added to the continuously stirred PRP to initiate the aggregation. The test substance is added in a volume of 10 ul in each case 2-3 minutes before initiation of the aggregation. The solvents used are either distilled water, ethanol and/or dimethyl sulphoxide. Blanks contain corresponding volumes of these solvents. After the initial absorption has been recorded (2-3 minutes), aggregation is induced with PAF (5×10^-8 M). To assess the effects of substances, use is made of the maximum of the first aggregation wave. The maximum absorption rate (=maximum aggregation×100%) induced by PAF is, in each case, simultaneously checked in a parallel mixture (=blank in one channel of the two-channel aggregometer) for each test mixture (second channel) and used as the 100% value. […]

With `Cc1nnc2n1-c1ccc(Cl)cc1C(c1ccccc1)=NC2` [Alprazolam, alprazolam, reference compound] the IC50 (Table A) was 14 µM and the IC50 was 14 µM.

Read-outs that look alike come from different tables or passages of the source.
